In PubChem BioAssay AID463195 (Sanford-Burnham Center for Chemical Genomics, 2010):
The entries are a selection whose mix differs from that of the whole data set. Some tests of the compounds listed are not included; inactive here does not mean inactive elsewhere. Activity calls are given as the source filed them.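 How the source made its calls: active means inhibition of 40% or more at the single tested concentration; inactive means the rest.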

Test: growth inhibitors of isogenic TIM10 control yeast, primary screen, counter-screen for tim10-1 yeast inhibitor project, luminescence, uHTS (AID 463195);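 further: wild-type TIM10 isogenic control strain grown at permissive 25 °C; 0% = DMSO yeast wells and 100% = minimal medium wells without yeast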
Details: S. cerevisiae TIM10 strain growth, BacTiter-Glo luminescence, 24 h; at 10 µM; stronger effect = higher value

SMILES | inhibition
O=C(NCC1(N2CCCCC2)CCCCC1)c1cc([N+](=O)[O-])ccc1Cl | inactive: -8.64%
CN1[C@@H]2CC[C@H]1CC(OC(=O)C(O)(c1ccccc1)c1ccccc1)C2 (some centres undefined) | inactive: -14.4%
CC(C)N1C(=O)CC2(CCN(CCOC(=O)C(O)(c3ccccc3)c3ccccc3)CC2)C1=O | inactive: -23.5%
COc1cc(SC)ccc1C(=O)NCC1(N(C)C)CCCCC1 | inactive: 6.58%
CCN(CC)CC(C)C(C)OC(=O)C(O)(c1ccccc1)c1ccccc1 (centres undefined) | inactive: -5.77%
Cc1ccc(C(=O)NCC2(N3CCCCC3)CCCCC2)cc1 | inactive: 5.67%
CN(C)c1ccc(C(=O)NCC2(N(C)C)CCCCC2)cc1 | inactive: -7.69%
CN(C)C1CCCC1OC(=O)C(O)(c1ccccc1)c1ccccc1 (centres undefined) | inactive: -4.5%
Cc1ccccc1C(=O)NCC1(N2CCCCC2)CCCCC1 | inactive: 24%
O=C(NCC1(N2CCCCC2)CCCCC1)c1cc(F)c(F)cc1Cl | inactive: -2.44%
C=CCN1CCN(CCOC(=O)C(O)(c2ccccc2)c2ccccc2)CC1 | inactive: -3.42%
O=C(NCC1(N2CCCCC2)CCCCC1)c1cccc(Br)c1 | inactive: -18.4%
CCN1CCCC(OC(=O)C2(O)c3ccccc3C=Cc3ccccc32)C1 (centres undefined) | inactive: 3.59%
Cc1cc(C(=O)NCC2(N3CCCCC3)CCCCC2)ccc1[N+](=O)[O-] | inactive: 1.12%
COc1ccc(C(=O)NCC2(N(C)C)CCCCC2)cc1 | inactive: -4.15%
CN(C)C1(CNC(=O)c2ccc(Br)cc2)CCCCC1 | inactive: -8.75%
COc1cc(C(=O)NCC2(N(C)C)CCCCC2)c([N+](=O)[O-])cc1OC | inactive: -3.24%
COc1ccc(Cl)cc1C(=O)NCC1(N(C)C)CCCCC1 | inactive: -4.99%
COc1cccc(C(=O)NCC2(N3CCCCC3)CCCCC2)c1 | inactive: -8.7%
O=C(NCC1(N2CCCCC2)CCCCC1)c1cccc(Cl)c1 | inactive: -14.3%
O=C(OC1CN2CCC1CC2)C(CO)(c1ccccc1)c1ccccc1 (centres undefined) | inactive: -2.3%
COc1ccc(Br)c(C(=O)NCC2(N3CCCCC3)CCCCC2)c1 | inactive: -2.76%
CN(C)c1cccc(C(=O)NCC2(N(C)C)CCCCC2)c1 | inactive: -6.09%
CC(C)Oc1ccc(C(=O)NCC2(N(C)C)CCCCC2)cc1 | inactive: -12.2%
